Test system: OS membrane protein pellet
Assay: Protein solubilization efficiencies of solubilizing agents (DC protein assay of supernatant)
Description: Bovine retinas obtained from WL Lawson Company (Omaha, Nebr.) were used to prepare the photoreceptor outer segment (OS) by sucrose density ultracentrifugation. All solvents used for bovine OS preparations contained protease inhibitors (1 mM EDTA, 0.2 mM PMSF, 0.7 μg/μL leupeptin, and 0.5 μg/μL pepstatin A) to inhibit protein degradation and 100 μM diethylenetriamine pentaacetic acid (DTPA) to inhibit oxidation.
The solubilized pellet solution was sonicated with a VirSonic 100 ultrasonic cell disrupter (SP Scientific, Gardiner, N.Y.) three times at 4.5 kHz of ultrasonic frequency for 9 seconds with 3-minute intervals between the sonications. The resulting protein extract was centrifuged at 15,000 g for 10 minutes, and the solubilized proteins in the supernatant were quantified using a DC protein assay kit (Bio-Rad, Hercules, Calif.).

ammonium bicarbonate [ABC]
Protein amount solubilized (OS membrane pellet in 100 mM ABC with agent at the concentration printed in the row (25 mM SDS 0.8% w/v, 25 mM PFOA 1% w/v, 4M urea, 4M Gdn-HCl), mean ± SD, triplicate): 9.2 ± 2.0 μg/10μ OS membrane preparation | protein solubilized from OS membrane protein pellet (text: 100 mM ABC, 1% PFOA, 1% SDS, urea, Gdn-HCl): 9.2 µg

— patent US8921515B2, “Methods and compositions of preparation for proteome analysis” (Case Western Reserve University, priority 2011, dated 2014)
